Reference: patent publication WO2003050283A2 (dated 2003)

Target: T1, RNase A (bovine, UniProt P61823 27-150)
T1 construct: also called bovine RNase A
T1 sequence (looked up): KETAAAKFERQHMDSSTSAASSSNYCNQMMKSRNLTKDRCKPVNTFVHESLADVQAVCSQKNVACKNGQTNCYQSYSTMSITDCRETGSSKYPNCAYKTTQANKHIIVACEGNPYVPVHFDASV
Assay: panning of chimeric phages on RNase A coated immunotubes

B1: iMab130 displayed on phage as fusion with the g3 coat protein (designed binder)
chain: NVKLVEKGGNFVENDDDLKLTCRASGYAYTYTYMGWFRQAPNDDSTNVATIDSGGGGTLYGDSVKERFDIRRDKGSNTVTLSMDDLQPEDSAEYNCAAGGYELRDRTYGQRGQGTDVTVSS
Q: Does B1 bind?
A: no binding
